Measured values from patent US20240261333A1, “NOVEL TARGETS FOR ENHANCING ANTI-TUMOR IMMUNITY” (THE BROAD INSTITUTE, INC., priority 2021, published 2024).

Key:
[1] = biological target: ABCF1 (UniProt Q8NE71); experiment: co-IP, IgG control, lysate of C-FLAG B3GNT2 cells, mass spectrometry
[2] = biological target: ALDOA (UniProt P04075); experiment: as above
[3] = biological target: ARPC2 (UniProt O15144); experiment: as above
[4] = biological target: CEP170 (UniProt Q5SW79); experiment: as above
[5] = biological target: CNP (UniProt P09543); experiment: as above
[6] = biological target: CSPG4 (UniProt Q6UVK1); experiment: as above
[7] = biological target: DPM1 (UniProt O60762); experiment: as above
[8] = biological target: GNAS (UniProt Q5JWF2); experiment: as above
[9] = biological target: HSPA5 (UniProt P11021); experiment: as above
[10] = biological target: HSPH1 (UniProt Q92598); experiment: as above
[11] = biological target: LAMB1 (UniProt P07942); experiment: as above
[12] = biological target: LOXL4 (UniProt Q96JB6); experiment: as above
[13] = biological target: LRP2 (UniProt P98164); experiment: as above
[14] = biological target: LRPPRC (UniProt P42704); experiment: as above
[15] = biological target: MAP1B (UniProt P46821); experiment: as above
[16] = biological target: MYO1D (UniProt O94832); experiment: as above
[17] = biological target: NCL (UniProt P19338); experiment: as above
[18] = biological target: OS9 (UniProt Q13438); experiment: as above
[19] = biological target: PGK1 (UniProt P00558); experiment: as above
[20] = biological target: PPIB (UniProt P23284); experiment: as above
[21] = biological target: PRR4 (UniProt Q16378); experiment: as above
[22] = biological target: PSMA1 (UniProt P25786); experiment: as above
[23] = biological target: PSMA4 (UniProt P25789); experiment: as above
[24] = biological target: RBMX (UniProt P38159); experiment: as above
[25] = biological target: RNASE1 (UniProt P07998); experiment: as above
[26] = biological target: RPL18A (UniProt Q02543); experiment: as above
[27] = biological target: SEC16A (UniProt O15027); experiment: as above
[28] = biological target: SERPINE2 (UniProt P07093); experiment: as above
[29] = biological target: SLC25A1 (UniProt P53007); experiment: as above
[30] = biological target: SLC25A3 (UniProt Q00325); experiment: as above
[31] = biological target: SMN1 (UniProt Q16637); experiment: as above
[32] = biological target: TM9SF3 (UniProt Q9HD45); experiment: as above
[33] = biological target: TNC (UniProt P24821); experiment: as above
[34] = biological target: TRIM28 (UniProt Q13263); experiment: as above
[35] = biological target: ARPC2 (UniProt O15144); experiment: co-IP, IgG control, lysate of N-FLAG B3GNT2 cells, mass spectrometry
[36] = biological target: LRP2 (UniProt P98164); experiment: as above
[37] = biological target: ACTG1 (human) (UniProt P63261); experiment: co-IP, IgG control, lysate of cells with C-FLAG B3GNT2; mass spectrometry
[38] = biological target: ACTG1 (human) (UniProt P63261); experiment: co-IP, IgG control, lysate of cells with N-FLAG B3GNT2; mass spectrometry
[39] = biological target: ACTA2 (human) (UniProt P62736); experiment: IgG control IP from lysate of cells overexpressing C-FLAG B3GNT2, then mass spectrometry

IgG control (Millipore Sigma 12-371) (antibody)
103: co-IP mass spectrometry count [38]
71: co-IP mass spectrometry count [37]
12: co-IP/MS count [9]
63: co-IP mass spectrometry count (C-term IgG) [39]
0: co-IP/MS count [1] | co-IP/MS count [2] | co-IP/MS count [3] | co-IP/MS count [4] | co-IP/MS count [5] | co-IP/MS count [6] | co-IP/MS count [7] | co-IP/MS count [8] | co-IP/MS count [10] | co-IP/MS count [11] | co-IP/MS count [12] | co-IP/MS count [13] | co-IP/MS count [14] | co-IP/MS count [15] | co-IP/MS count [16] | co-IP/MS count [17] | co-IP/MS count [18] | co-IP/MS count [19] | co-IP/MS count [20] | co-IP/MS count [21] | co-IP/MS count [22] | co-IP/MS count [23] | co-IP/MS count [24] | co-IP/MS count [25] | co-IP/MS count [26] | co-IP/MS count [27] | co-IP/MS count [28] | co-IP/MS count [29] | co-IP/MS count [30] | co-IP/MS count [32] | co-IP/MS count [33] | co-IP/MS count [34] | co-IP/MS count [35] | co-IP/MS count [36]
2: co-IP/MS count [31]
